## Membrane permeability of cyclic peptides

Source: CycPeptMPDB (Li et al. 2023), which took these values from Townsend et al. 2020, doi:10.26434/chemrxiv.13335941.v1.

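The data file gives no further conditions (lipid, pH, time, direction or concentration), and values from different papers need not be comparable. The list need not hold all peptides of the study. Entries at the database's floor value (log10 P of -10) are not listed.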

PAMPA measures passive passage through an artificial lipid membrane. Permeability is given as log10 of P in cm/s; higher (less negative) is more permeable.

compound,PAMPA (log10 cm/s)
CC(C)C[C@@H]1C(=O)N2CCC[C@H]2C(=O)N(Cc2ccccc2)CC(=O)N[C@@H](Cc2ccccc2)C(=O)N2CCC[C@H]2C(=O)N(C)[C@H](C)C(=O)N(C)[C@@H](CC(C)C)C(=O)N1C,-5.68
CC(C)C[C@@H]1NC(=O)[C@H](CC(C)C)N(C)C(=O)[C@@H](C)NC(=O)[C@H](Cc2ccccc2)NC(=O)[C@@H](CC(C)C)NC(=O)[C@H]2CCCN2C1=O,-5.19
CC(C)C[C@@H]1C(=O)N2CCC[C@H]2C(=O)N(C)[C@H](CC(C)C)C(=O)N[C@@H](Cc2ccccc2)C(=O)N[C@@H](C)C(=O)N(C)[C@@H](CC(C)C)C(=O)N1C,-5.07
CC(C)C[C@@H]1NC(=O)[C@H](CC(C)C)N(C)C(=O)C[C@H](Cc2ccccc2)NC(=O)[C@@H]2CCCN2C(=O)[C@H](Cc2ccccc2)NC(=O)[C@H](CC(C)C)N(C)C(=O)[C@@H]2CCCN2C1=O,-5.74
CC(C)C[C@@H]1NC(=O)[C@H](C)NC(=O)[C@H](Cc2ccccc2)NC(=O)[C@H](CC(C)C)N(C)C(=O)[C@@H]2CCCN2C(=O)[C@@H](CC(C)C)N(C)C1=O,-5.48
CC(C)C[C@@H]1C(=O)N[C@@H](Cc2ccccc2)C(=O)N2CCC[C@@H]2C(=O)N(C)[C@@H](C)C(=O)N(C)[C@@H](CC(C)C)C(=O)N(C)[C@@H](CC(C)C)C(=O)N2CCC[C@@H]2C(=O)N1C,-4.93
CC(C)C[C@H]1NC(=O)C[C@H](Cc2ccccc2)NC(=O)[C@H]2CCCN2C(=O)[C@H](Cc2ccccc2)NC(=O)[C@H](CC(C)C)N(C)C(=O)[C@H]2CCCN2C(=O)CN(Cc2ccccc2)C1=O,-5.62
CC(C)C[C@@H]1C(=O)N[C@@H](Cc2ccccc2)C(=O)N[C@@H](Cc2ccccc2)CC(=O)N[C@H](CC(C)C)C(=O)N[C@H](CC(C)C)C(=O)N2CCC[C@@H]2C(=O)N1C,-5.32
CC(C)C[C@@H]1NC(=O)[C@@H]2CCCN2C(=O)[C@H](CC(C)C)N(C)C(=O)[C@H](CC(C)C)NC(=O)[C@@H](C)N(C)C(=O)[C@@H]2CCCN2C(=O)[C@H](Cc2ccccc2)NC1=O,-6.54
CC(C)C[C@@H]1NC(=O)[C@H](CC(C)C)N(C)C(=O)[C@@H](C)N(C)C(=O)[C@@H]2CCCN2C(=O)[C@H](Cc2ccccc2)NC(=O)CN(Cc2ccccc2)C(=O)[C@H]2CCCN2C1=O,-5.40
CC(C)C[C@H]1NC(=O)[C@@H](C)N(C)C(=O)[C@H](Cc2ccccc2)NC(=O)CN(Cc2ccccc2)C(=O)[C@@H]2CCCN2C(=O)C[C@H](Cc2ccccc2)NC1=O,-5.90
CCCN1CC(=O)N[C@@H](CC(C)C)C(=O)N(C)[C@H](CC(C)C)C(=O)N2CCC[C@H]2C(=O)N(C)[C@H](CC(C)C)C(=O)N[C@@H](Cc2ccccc2)C(=O)N2CCC[C@@H]2C1=O,-5.25
CC(C)C[C@@H]1C(=O)N2CCC[C@H]2C(=O)N(C)[C@H](CC(C)C)C(=O)N[C@@H](Cc2ccccc2)C(=O)N[C@H](C)C(=O)N[C@H](CC(C)C)C(=O)N1C,-6.37
CC(C)C[C@@H]1C(=O)N[C@@H](Cc2ccccc2)C(=O)N[C@@H](C)C(=O)N[C@H](CC(C)C)C(=O)N[C@H](CC(C)C)C(=O)N2CCC[C@@H]2C(=O)N1C,-6.91